Experimental data as given in ChEMBL document CHEMBL5528013 (Eur J Med Chem, 2024).

Legend:
MOLM-14 [1] = experiment: Antiproliferative activity against human MOLM-14 cells harboring FLT3-D835Y mutant assessed as inhibition of cell growth incubated for 72 hrs by resazurin dye based assay; assay type: functional; conditions: MOLM-14, 72 h
Outline: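 Logarithmic-phase cells were seeded at 5000 per well and treated 24 h later, in triplicate, with various concentrations for 72 h. MOLM14 lines were grown in RPMI with 10 % FBS, and other lines per provider instructions, all at 37 °C and 5 % CO2. Resazurin was then added for 4–6 h and fluorescence read. GI50 was taken from percent growth versus DMSO control, fitted with a variable-slope normalized-response model; at least three runs.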

MOLM-14 [2] = assay type: functional, cell-based; conditions: Homo sapiens, MOLM-14, 72 h

| pIC50 (MOLM-14 [1]) | pIC50 (MOLM-14 [2]) | Compound |
| --- | --- | --- |
| 8.11 | 7.23 | CCc1nc(C(N)=O)c(Nc2ccc(N3CCC(N4CCN(C)CC4)CC3)c(OC)c2)nc1NC1CCOCC1 [GILTERITINIB] |
| 5.55 | – | COc1cc2/c(=N/c3ccc(Br)cc3F)nc[nH]c2cc1OCC1CCN(C)CC1 [VANDETANIB] |

pIC50: −log10 of the molar value.
